Experimental findings from patent US7294691B1, “Soluble secreted α2δ-2calcium channel subunit polypeptide” (Warner Lambert Company, priority 2000, dated 2007) are described below.

Sequences of proteins named here, by UniProt entry; tags and fusion partners are left off. A line that says so, or that is headed by a name, gives the form on record, which may keep a tag or linker. Residues count along the entry.
UniProt Q9NY47, with tags, fused parts or gaps isoform Q9NY47-3: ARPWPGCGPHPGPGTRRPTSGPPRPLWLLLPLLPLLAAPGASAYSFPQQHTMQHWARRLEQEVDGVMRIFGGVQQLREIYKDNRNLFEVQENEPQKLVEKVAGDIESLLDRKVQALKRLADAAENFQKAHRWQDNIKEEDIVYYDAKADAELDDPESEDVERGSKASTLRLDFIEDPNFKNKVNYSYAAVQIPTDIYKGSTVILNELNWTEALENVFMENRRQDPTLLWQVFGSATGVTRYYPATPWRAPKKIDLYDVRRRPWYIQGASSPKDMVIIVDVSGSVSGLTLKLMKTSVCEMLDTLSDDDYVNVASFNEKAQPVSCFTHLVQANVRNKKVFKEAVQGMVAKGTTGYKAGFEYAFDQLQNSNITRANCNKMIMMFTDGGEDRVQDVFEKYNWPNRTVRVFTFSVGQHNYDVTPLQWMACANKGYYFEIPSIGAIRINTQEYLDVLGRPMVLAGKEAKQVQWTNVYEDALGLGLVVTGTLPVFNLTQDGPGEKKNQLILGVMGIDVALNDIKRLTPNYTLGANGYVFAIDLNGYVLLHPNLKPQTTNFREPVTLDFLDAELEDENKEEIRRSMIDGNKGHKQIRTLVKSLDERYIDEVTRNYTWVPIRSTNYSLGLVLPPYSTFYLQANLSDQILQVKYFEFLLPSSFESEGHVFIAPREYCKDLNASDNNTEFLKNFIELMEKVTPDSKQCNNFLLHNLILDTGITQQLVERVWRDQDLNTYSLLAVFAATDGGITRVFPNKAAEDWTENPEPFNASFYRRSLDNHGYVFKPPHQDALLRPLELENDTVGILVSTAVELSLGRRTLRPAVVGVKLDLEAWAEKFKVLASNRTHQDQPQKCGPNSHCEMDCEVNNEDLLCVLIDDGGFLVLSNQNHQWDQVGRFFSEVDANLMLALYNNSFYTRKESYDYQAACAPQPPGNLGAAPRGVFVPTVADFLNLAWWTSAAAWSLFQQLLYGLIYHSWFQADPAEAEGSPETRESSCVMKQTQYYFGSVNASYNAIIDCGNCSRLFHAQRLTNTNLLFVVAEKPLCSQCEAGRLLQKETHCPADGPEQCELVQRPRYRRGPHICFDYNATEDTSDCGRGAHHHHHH
UniProt O77773, 25-1091: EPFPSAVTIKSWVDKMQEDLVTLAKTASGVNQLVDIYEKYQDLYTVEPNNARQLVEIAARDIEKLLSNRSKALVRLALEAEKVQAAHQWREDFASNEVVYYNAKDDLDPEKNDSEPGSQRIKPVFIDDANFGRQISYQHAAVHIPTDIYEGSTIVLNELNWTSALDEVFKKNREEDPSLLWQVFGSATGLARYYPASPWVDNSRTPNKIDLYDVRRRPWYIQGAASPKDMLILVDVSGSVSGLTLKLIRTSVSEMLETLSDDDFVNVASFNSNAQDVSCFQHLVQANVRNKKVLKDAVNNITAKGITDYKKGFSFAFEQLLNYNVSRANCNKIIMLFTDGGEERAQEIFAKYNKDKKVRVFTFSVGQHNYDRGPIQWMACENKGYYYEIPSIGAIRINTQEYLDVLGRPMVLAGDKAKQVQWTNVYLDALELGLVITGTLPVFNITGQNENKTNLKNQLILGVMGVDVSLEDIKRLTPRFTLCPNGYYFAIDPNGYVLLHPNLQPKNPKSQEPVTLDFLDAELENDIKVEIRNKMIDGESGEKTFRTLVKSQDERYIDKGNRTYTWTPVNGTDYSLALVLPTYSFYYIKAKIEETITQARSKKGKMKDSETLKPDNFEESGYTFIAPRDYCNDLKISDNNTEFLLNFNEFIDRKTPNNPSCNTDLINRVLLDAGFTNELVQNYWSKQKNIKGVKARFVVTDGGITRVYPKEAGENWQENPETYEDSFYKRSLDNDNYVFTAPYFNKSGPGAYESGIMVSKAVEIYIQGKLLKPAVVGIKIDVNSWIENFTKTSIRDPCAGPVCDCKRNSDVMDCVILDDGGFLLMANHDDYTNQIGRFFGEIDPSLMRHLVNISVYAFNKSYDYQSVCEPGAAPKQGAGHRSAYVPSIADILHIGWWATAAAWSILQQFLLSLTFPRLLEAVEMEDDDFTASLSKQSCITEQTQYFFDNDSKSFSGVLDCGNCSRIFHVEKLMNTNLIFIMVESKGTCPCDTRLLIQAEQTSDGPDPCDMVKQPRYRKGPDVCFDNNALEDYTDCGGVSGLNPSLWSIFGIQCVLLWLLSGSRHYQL

Assay [1] deals with T1, secreted soluble human α2δ-2 subunit polypeptide of SEQ ID No. 23 (s-α2δ-2-6His) (Homo sapiens, UniProt Q9NY47).
T1 construct: made in house; host or cells: baculovirus / Sf9 insect cells
The assay is described as follows: Filter binding assay of [^3H]gabapentin binding to s-α2δ-2-6His. Particulars: [^3H]gabapentin binding assay using s-α2δ-2-6His; Ki = IC50/(1 + [L]/KD); read-out: Ki (n = 3), filtration assay.

Assay [2] deals with [^3H]gabapentin site in porcine cortical membranes (Sus scrofa, UniProt O77773). Put plainly: [^3H]gabapentin binding, porcine cortical membranes. To be noted: read-out: IC50 arithmetic mean (n = 3) ± S.E.M.

Take “(1-aminomethyl)cyclohexane acetic acid [Gabapentin]”: in assay [1], the Ki was 20 nM. The IC50 in assay [2] amounted to 42.1 ± 5.5 nM.

What is called IC50 is the concentration that inhibits the measured activity by half.
